US20200390128A1 (Lennham Pharmaceuticals, Inc., priority 2019, published 2020)

Assays:
[1] = Plasma pharmacokinetics after a single oral (gavage) dose in fasted male Sprague-Dawley rats, LC-MS/MS; settings: oral gavage 2 mg/kg;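 note: plasma from heparinized blood sampled up to 14 h post dose, three rats per timepoint, parameters by non-compartmental analysis of mean concentration-time data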
[2] = in vivo; settings: male, Sprague-Dawley, rat, plasma, po, 2 mg/kg
[3] = Brain concentrations and brain pharmacokinetics after a single oral (gavage) dose in fasted male Sprague-Dawley rats, LC-MS/MS; assay type: in vivo; settings: oral gavage 2 mg/kg
[4] = 1 hour post dose, individual fasted male Sprague Dawley rats
[5] = 4 hour post dose, individual fasted male Sprague Dawley rats
[6] = 8 hour post dose, individual fasted male Sprague Dawley rats
[7] = 14 hour post dose, individual fasted male Sprague Dawley rats
[8] = male, Sprague-Dawley, rat, brain, po, 2 mg/kg, 1 hour post dose, individual fasted male Sprague Dawley rats, read-out: Concentration in brain, individual animal
[9] = male, Sprague-Dawley, rat, brain, po, 2 mg/kg, 4 hour post dose, individual fasted male Sprague Dawley rats, read-out: Concentration in brain, individual animal

Compound | Concentration in plasma, individual animal ([1]; 0.25 hr post dose) | Concentration in plasma, individual animal ([1]; 0.5 hr post dose) | Concentration in plasma, individual animal ([1]; 2 hr post dose) | Concentration in plasma, individual animal ([1]; 3 hr post dose) | Concentration in plasma, individual animal ([1]; 4 hr post dose) | Concentration in plasma, individual animal ([1]; 6 hr post dose) | Concentration in plasma, individual animal ([1]; 8 hr post dose) | Concentration in plasma, individual animal ([1]; 10 hr post dose) | Concentration in plasma, individual animal ([1]; 12 hr post dose) | Concentration in plasma, individual animal ([1]; 14 hr post dose) | Concentration in brain, individual animal [3, 4] | Concentration in brain, individual animal [3, 5] | Concentration in brain, individual animal [3, 6] | Concentration in brain, individual animal [3, 7] | concentration at 1 h [3, 8] [ng/g] | concentration at 4 h [3, 9] [ng/g] | other results
Cn1c(=O)c2c(ncn2C)n(C)c1=O [Caffeine, reference compound] | 2250 ng/mL and 2670 ng/mL and 2350 ng/mL | 2460 ng/mL (2×) and 2300 ng/mL | 2080 ng/mL and 2030 ng/mL and 2090 ng/mL | 2100 ng/mL and 1970 ng/mL and 2020 ng/mL | 1710 ng/mL and 1800 ng/mL and 1950 ng/mL | 1470 ng/mL and 1310 ng/mL and 816 ng/mL | 1150 ng/mL and 916 ng/mL and 480 ng/mL | 439 ng/mL and 382 ng/mL and 212 ng/mL | 231 ng/mL and 194 ng/mL and 87.7 ng/mL | 136 ng/mL and 117 ng/mL and 38.2 ng/mL | 1940 ng/g and 1780 ng/g | 1200 ng/g and 1290 ng/g | 715 ng/g and 672 ng/g and 271 ng/g | 84 ng/g and 80 ng/g and 23.8 ng/g | 2010 | 1140 | concentration at 6 h [2]: 1200 ng/mL
[2H]C([2H])([2H])n1c(=O)c2c(ncn2C([2H])([2H])[2H])n(C([2H])([2H])[2H])c1=O [Compound D9-Caffeine, D9-caffeine] | 1730 ng/mL and 1480 ng/mL and 1940 ng/mL | 1680 ng/mL and 1520 ng/mL and 2030 ng/mL | 2400 ng/mL and 2360 ng/mL and 2260 ng/mL | 2330 ng/mL and 2440 ng/mL and 2300 ng/mL | 2350 ng/mL and 2250 ng/mL and 2200 ng/mL | 1850 ng/mL and 1740 ng/mL and 1790 ng/mL | 1670 ng/mL and 1460 ng/mL and 1520 ng/mL | 1160 ng/mL and 1170 ng/mL and 1300 ng/mL | 910 ng/mL and 821 ng/mL and 959 ng/mL | 633 ng/mL and 643 ng/mL and 770 ng/mL | 1370 ng/g and 1670 ng/g | 1730 ng/g and 1630 ng/g | 1070 ng/g and 1110 ng/g | 414 ng/g and 509 ng/g | 1570 | 1570 | concentration at 10 h [2]: 1210 ng/mL; concentration at 8 h ([3]; male, Sprague-Dawley, rat, brain, po, 2 mg/kg, 8 hour post dose, fasted male Sprague-Dawley rats, n = 3/time point, read-out: Concentration in brain, Mean): 1150 ng/g; concentration at 8 h ([3]; male, Sprague-Dawley, rat, brain, po, 2 mg/kg, 8 hour post dose, individual fasted male Sprague Dawley rats, read-out: Concentration in brain, individual animal): 1280 ng/g; concentration at 14 h ([3]; male, Sprague-Dawley, rat, brain, po, 2 mg/kg, 14 hour post dose, individual fasted male Sprague Dawley rats, read-out: Concentration in brain, individual animal): 465 ng/g

Values joined by “and” are separate entries in the source; they are usually repeats but may differ in a detail not shown here. Equal entries are not always repeated. Where two headings read alike, the source gives them in different places.
